Measured values: patent publication US7285556B2, “Thienopyrimidine-based inhibitors of the src family” (Board of Regents, The University of Texas Systems, priority 2000, dated 2007)

Chains of the proteins cited; added tags and fusions are not shown. Residues count along the entry.
UniProt P11362, 398-822 limits assumed: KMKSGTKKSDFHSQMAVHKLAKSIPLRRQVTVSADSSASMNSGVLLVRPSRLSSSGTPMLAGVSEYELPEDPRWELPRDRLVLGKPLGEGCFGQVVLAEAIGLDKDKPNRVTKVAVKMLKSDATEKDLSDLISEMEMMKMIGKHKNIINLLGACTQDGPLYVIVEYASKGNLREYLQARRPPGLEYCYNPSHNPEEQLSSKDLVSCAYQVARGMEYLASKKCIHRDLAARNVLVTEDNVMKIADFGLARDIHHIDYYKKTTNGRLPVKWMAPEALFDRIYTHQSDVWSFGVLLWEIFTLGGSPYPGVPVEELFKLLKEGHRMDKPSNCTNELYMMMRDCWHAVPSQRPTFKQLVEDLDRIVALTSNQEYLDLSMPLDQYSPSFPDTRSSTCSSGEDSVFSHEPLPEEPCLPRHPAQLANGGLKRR
UniProt P41240, whole entry: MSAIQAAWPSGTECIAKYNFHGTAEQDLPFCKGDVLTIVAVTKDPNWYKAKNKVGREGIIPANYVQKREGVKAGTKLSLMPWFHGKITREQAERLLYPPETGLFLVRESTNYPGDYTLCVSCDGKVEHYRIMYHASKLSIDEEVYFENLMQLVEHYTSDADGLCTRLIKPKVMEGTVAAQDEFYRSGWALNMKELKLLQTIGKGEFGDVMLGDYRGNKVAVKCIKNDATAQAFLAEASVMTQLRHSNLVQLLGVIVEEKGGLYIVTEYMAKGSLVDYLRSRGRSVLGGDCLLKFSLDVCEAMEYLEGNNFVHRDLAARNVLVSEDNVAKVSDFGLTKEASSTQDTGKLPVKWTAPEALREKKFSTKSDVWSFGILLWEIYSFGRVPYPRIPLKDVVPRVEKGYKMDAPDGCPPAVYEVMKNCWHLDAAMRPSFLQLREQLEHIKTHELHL
UniProt P12931, whole entry: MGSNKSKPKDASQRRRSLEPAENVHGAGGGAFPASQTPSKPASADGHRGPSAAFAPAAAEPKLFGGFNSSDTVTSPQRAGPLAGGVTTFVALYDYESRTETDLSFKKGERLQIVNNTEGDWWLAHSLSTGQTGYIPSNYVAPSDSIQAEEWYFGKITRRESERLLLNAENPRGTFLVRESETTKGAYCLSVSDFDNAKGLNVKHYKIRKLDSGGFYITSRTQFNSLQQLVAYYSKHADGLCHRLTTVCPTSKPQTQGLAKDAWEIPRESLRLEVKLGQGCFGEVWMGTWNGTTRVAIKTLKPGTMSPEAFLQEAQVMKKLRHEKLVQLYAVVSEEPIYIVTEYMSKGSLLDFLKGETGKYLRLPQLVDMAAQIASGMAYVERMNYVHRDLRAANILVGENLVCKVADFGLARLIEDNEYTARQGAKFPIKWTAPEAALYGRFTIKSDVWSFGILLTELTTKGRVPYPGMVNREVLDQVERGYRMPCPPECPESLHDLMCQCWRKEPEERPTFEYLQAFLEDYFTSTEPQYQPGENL

Legend:
Details in all cases: screening assay, 50 μg/ml poly E4Y, 0.2 mM 32P-ATP
FGF receptor (FGFr) = FGF receptor (FGFr) (Homo sapiens, UniProt P11362); experiment: FGFr tyrosine kinase activity, poly E4Y and 32P-ATP; type: biochemical
Experimental: Recombinant human Src was expressed using the baculovirus-insect cell system and purified as published (Budde et al., 1993 and 2000). Recombinant Csk and the FGF receptor (FGFr) were expressed as glutathione-S-transferase fusion proteins using the pGEX expression vector and E. coli, and purified as described (Sun & Budde, 1995). The tyrosine kinase activity of Src, Csk and FGFr was determined using poly E4Y and ^32P-ATP. Briefly, enzymes were assayed in a reaction mixture consisting of 0.15 M EPPS-NaOH (pH 8.0) with 6 mM MgCl2, 0.2 mM γ^32P-ATP (0.2-0.4 mCi/μmol), 10% glycerol, 0.1% Triton X-100, and poly E4Y. Poly E4Y is a synthetic peptide whose phosphorylation is measured in this assay by the addition of the radioactively labeled phosphate from the ATP (Budde et al., 1995). […] When ATP was varied (0, 50, 100 and 250 μM), poly E4Y was kept constant at 150 μg/ml. […] From this screening, the thienopyrimidine-based scaffold was identified as one of the chemical structures to pursue. […] These analogues were screened against Src, Csk and FGFr (Table 2, Table 3, and Table 4).

Csk = Csk (Homo sapiens, UniProt P41240); experiment: Csk tyrosine kinase activity, poly E4Y and 32P-ATP
Recombinant human Src = Recombinant human Src (Homo sapiens, UniProt P12931); experiment: Src tyrosine kinase activity, poly E4Y and 32P-ATP

Compound	FGFr IC50 (FGF receptor (FGFr))	Csk IC50 (Csk)	Src IC50 (Recombinant human Src)
Cc1csc2c(NN=CCCc3ccccc3)ncnc12	NI (NI = no inhibition up to 50 ug/mL)	NI (NI = no inhibition up to 50 ug/mL)	
Cc1csc2c(NN=Cc3cc([N+](=O)[O-])ccc3Cl)ncnc12	NI (NI = no inhibition up to 50 ug/mL)	NI (NI = no inhibition up to 50 ug/mL)	NI (NI = no inhibition up to 50 ug/mL)
COc1ccc(C=NNc2ncnc3cc(-c4ccc(Cl)cc4)sc23)cc1O	NI (NI = no inhibition up to 50 ug/mL)	NI (NI = no inhibition up to 50 ug/mL)	
Cc1csc2c(N(C)N=Cc3ccc(F)cc3)ncnc12	NI (NI = no inhibition up to 50 ug/mL)	NI (NI = no inhibition up to 50 ug/mL)	NI (NI = no inhibition up to 50 ug/mL)
Cc1csc2c(NN=CCC(C)C)ncnc12	NI (NI = no inhibition up to 50 ug/mL)	NI (NI = no inhibition up to 50 ug/mL)	
Cc1csc2c(NN=Cc3c(Cl)cccc3[N+](=O)[O-])ncnc12	NI (NI = no inhibition up to 50 ug/mL)	NI (NI = no inhibition up to 50 ug/mL)	NI (NI = no inhibition up to 50 ug/mL)
COc1ccc(C=NNc2ncnc3cc(-c4cccc(Cl)c4)sc23)cc1O	NI (NI = no inhibition up to 50 ug/mL)	NI (NI = no inhibition up to 50 ug/mL)	
COc1ccc(OC)c(C=NNc2ncnc3c(C)csc23)c1	NI (NI = no inhibition up to 50 ug/mL)	NI (NI = no inhibition up to 50 ug/mL)	NI (NI = no inhibition up to 50 ug/mL)
COc1cccc(C=NNc2ncnc3c(C)csc23)c1OC	NI (NI = no inhibition up to 50 ug/mL)	NI (NI = no inhibition up to 50 ug/mL)	NI (NI = no inhibition up to 50 ug/mL)

More lines, now with the values ahead:

FGFr IC50 (FGF receptor (FGFr))	Csk IC50 (Csk)	Src IC50 (Recombinant human Src)	Compound
NI (NI = no inhibition up to 50 ug/mL)			COc1ccc(C=NNc2ncnc3cc(-c4ccc(F)cc4)sc23)cc1O
NI (NI = no inhibition up to 50 ug/mL)	NI (NI = no inhibition up to 50 ug/mL)		Fc1ccc(-c2cc3ncnc(NN=Cc4cccs4)c3s2)cc1
NI (NI = no inhibition up to 50 ug/mL)	NI (NI = no inhibition up to 50 ug/mL)		Cc1csc2c(NN=Cc3ccc(Cl)c([N+](=O)[O-])c3)ncnc12
NI (NI = no inhibition up to 50 ug/mL)	NI (NI = no inhibition up to 50 ug/mL)		CCCCOc1ccc(C=NNc2ncnc3c(C)csc23)cc1
NI (NI = no inhibition up to 50 ug/mL)	NI (NI = no inhibition up to 50 ug/mL)	NI (NI = no inhibition up to 50 ug/mL)	Fc1ccc(-c2csc3c(NN=Cc4cccnc4)ncnc23)cc1
NI (NI = no inhibition up to 50 ug/mL)	NI (NI = no inhibition up to 50 ug/mL)	NI (NI = no inhibition up to 50 ug/mL)	C(=NNc1ncnc2c(-c3ccccc3)csc12)c1cccnc1
